ChEMBL document CHEMBL4118021, “Studies of TAK1-centered polypharmacology with novel covalent TAK1 inhibitors” (Bioorg Med Chem, 2017)

Experiments:
[1] = molecular target: T1, Mitogen-activated protein kinase kinase kinase 7 (Homo sapiens) (UniProt O43318); assay: Inhibition of TAK1 in RA patient-derived synovial fibroblasts assessed as inhibition of TNFalpha-induced cytokine secretion at 3 uM preincubated for 3 hrs followed by TNFalpha stimulation measured after 18 hrs by sandwich immunoassay
T1 sequence (whole entry): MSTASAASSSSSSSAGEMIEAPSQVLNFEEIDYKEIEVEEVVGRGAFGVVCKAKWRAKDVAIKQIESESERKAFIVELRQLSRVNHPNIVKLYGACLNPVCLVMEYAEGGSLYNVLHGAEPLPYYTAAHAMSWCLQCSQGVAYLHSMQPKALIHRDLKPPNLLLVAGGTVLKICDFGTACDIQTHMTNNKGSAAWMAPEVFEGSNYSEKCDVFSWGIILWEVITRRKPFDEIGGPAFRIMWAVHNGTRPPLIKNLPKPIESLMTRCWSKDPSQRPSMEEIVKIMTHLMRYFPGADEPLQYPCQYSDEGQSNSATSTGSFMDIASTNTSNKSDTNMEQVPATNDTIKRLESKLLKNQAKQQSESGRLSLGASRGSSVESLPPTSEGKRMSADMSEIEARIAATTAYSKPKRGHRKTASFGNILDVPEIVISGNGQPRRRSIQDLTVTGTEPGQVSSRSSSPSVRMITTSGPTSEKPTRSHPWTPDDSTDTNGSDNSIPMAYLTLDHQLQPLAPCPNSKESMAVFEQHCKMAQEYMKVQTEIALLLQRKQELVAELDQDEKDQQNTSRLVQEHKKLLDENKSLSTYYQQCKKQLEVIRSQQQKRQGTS
Outline: (§1)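 Primary RA synovial fibroblasts (donor RA2159) seeded 1000 cells/well and grown ~24 h at 37 °C, 5% CO2. Starved overnight in basal medium, then ~4 h in basal medium with 0.1% BSA. Two adjacent wells pooled per replicate, in biological duplicate. Supernatants diluted 1:3 and run on Luminex 27-plex/21-plex sandwich immunoassays for 48 analytes, with spiked-ligand and mock-supernatant background controls.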

[2] = molecular target: T1, Mitogen-activated protein kinase kinase kinase 7 (Homo sapiens); assay: Inhibition of TAK1 in RA patient-derived synovial fibroblasts assessed as inhibition of IL-1alpha-induced cytokine secretion at 3 uM preincubated for 3 hrs followed by IL-1alpha stimulation measured after 18 hrs by sandwich immunoassay; outline: as §1
[3] = molecular target: T1, Mitogen-activated protein kinase kinase kinase 7 (Homo sapiens); assay: Inhibition of TAK1 in RA patient-derived synovial fibroblasts assessed as inhibition of poly(I:C)-induced cytokine secretion at 3 uM preincubated for 3 hrs followed by poly(I:C) stimulation measured after 18 hrs by sandwich immunoassay; outline: as §1
[4] = molecular target: T1, Mitogen-activated protein kinase kinase kinase 7 (Homo sapiens); details: NCI-H358, 1 uM
[5] = molecular target: T2, Mitogen-activated protein kinase kinase kinase 7 (Homo sapiens, UniProt O43318); assay: Inhibition of TAK1 (unknown origin) by LanthaScreen assay
T2 sequence (O43318 whole entry): T1 sequence (whole entry)

| Structure (SMILES) | inhibition [1] | inhibition [2] | inhibition [3] | inhibition [4] | IC50 [5] [nM] |
| --- | --- | --- | --- | --- | --- |
| CCN1CCN(Cc2ccc(NC(=O)c3ccc(C)c(Oc4ccnc5[nH]ccc45)c3)cc2C(F)(F)F)CC1 | Active | Active | Active | Active |  |
| COc1cc(O)c2c(c1)/C=C/C[C@H](O)[C@H](O)C(=O)/C=C\C[C@H](C)OC2=O |  |  |  |  | 5.6 |

Calls of active or inactive are those of the source. The calls are words filed in the database; no cut-off is given here.
